Screening data: PubChem, Broad Institute
PglD inh = blocks C. jejuni PglD acetyltransferase activity; inhibition, % at 12.5 µM; actives 0.098% (n = 360,000); purified PglD enzyme, DTNB colorimetric CoA detection; AID 602405; in the data active = inhibition above about 16%, passing the limit was not always enough; inconclusive = no clear call, values can overlap the other calls
Yeast UUG start = modulators of start codon recognition fidelity in yeast; S. cerevisiae UUG-firefly luciferase reporter, luminescence/redox ratio; activity score, % at 18.7 µM; hit rate 0.13% among 350,000; AID 602363;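 active = replicate mean at a twofold rise or more, about +100% in these data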;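 note: firefly luciferase made from a UUG start codon reports start codon fidelity; reporter light over untreated wells divided by growth signal over untreated wells; some hits fall short of that in this replicate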
CAL PDZ FP-1 = CAL PDZ (human) peptide binding inhibition | Q9HD26 | AID 602252 | purified CAL PDZ, TMR-peptide fluorescence polarization, 1 h | inhibition, % at 24.9 µM | actives 0.92% (n = 300,000);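 active = mean inhibition of at least 30% with at least half of replicates also reaching 30%; inconclusive = no clear call, values can overlap the other calls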;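 note: 0% = DMSO neutral control and 100% = excess unlabeled competitor peptide PRC23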
ARNT-TACC3 inh = ARNT/TACC3 interaction disruption; Q9Y6A5; AlphaScreen His-ARNT PAS-B/GST-TACC3 binding, luminescence; TACC3 fragment carries E629A point mutation; inhibition, % at 9.99 µM; actives 0.66% (n = 390,000); AID 623870;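 active = mean inhibition of replicates at least 50% and at least half of replicates each reaching 50%; inconclusive = half or more replicates reach 50% but mean below 50%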;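 note: 0% = complete ARNT plus TACC3 wells and 100% = ARNT alone without TACC3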
Vif imaging = HIV Vif inhibition; HEK293T cells, Vif self-association by quenched fluorescence, imaging, 24 h; inhibition, % at 7.49 µM; actives 0.35% (n = 340,000); AID 602346; in the data active = inhibition above about 50%, passing the limit was not always enough; inconclusive = no clear call, values can overlap the other calls; inactive = below about 31%
CAL PDZ FP-2 = inhibitors of human CAL PDZ peptide binding; inhibition, % at 20 µM; purified CAL PDZ, TMR-peptide fluorescence polarization, 1 h; Q9HD26; actives 0.02% (n = 330,000);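 active = highest replicate inhibition of at least 40%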;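 note: plate controls were DMSO neutral control wells for no effect and unlabeled competitor peptide control wells for full effect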
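Material – purified CerCALP PDZ construct · Detection – FP readout, S and P plane fluorescence · Measure – percent inhibition from loss of millipolarization · Controls – unlabelled peptide for full inhibition, DMSO wells as neutral · Probe or stimulus – TMR-labelled reporter peptide T*-PRC34 bound in PDZ groove · Times – 1 h at RT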
* = called active by the depositor; ? = inconclusive; . = no result given; + = active, no number. Rows were chosen to be rich in hits. Some 1.6% of all compounds tested hit in one or more screens of this group.

SMILES	PglD inh	Yeast UUG start	CAL PDZ FP-1	ARNT-TACC3 inh	Vif imaging	CAL PDZ FP-2
COc1ccc(C(=O)Nc2ccc3c(c2)C(=O)N(C)[C@H]2CC[C@H](CC(=O)NCC4CC4)O[C@H]2CO3)cc1	6	.	.	-2	.	.
C=CCNc1nc2c3ccccc3n(C(C)=O)c2s1	-4	-16	11	active	0	-2
CC(=O)n1c2ccccc2c2nc3ccccc3nc21	3	-16	-6	-6	0	-15
C[C@H]1CN([C@@H](C)CO)C(=O)Cc2cc(NC(=O)c3ccncc3)ccc2O[C@H]1CN(C)C(=O)Nc1ccccc1	6	-4	.	-2	.	.
Cc1ccc(NC2=C(NCCO)C(=O)c3ccccc3C2=O)cc1	.	.	-2	48*	-10	1
COc1ccc(CCNS(=O)(=O)c2ccc(-n3cnnn3)cc2)cc1OC	4	-13	+	-3	5	-1
CCOc1ccc(-n2cnnn2)cc1S(=O)(=O)NCCc1ccc(OC)c(OC)c1	8	6	-1	-6	-2	1
COc1ccc(C(CC(=O)O)NC(=O)c2ccccc2[N+](=O)[O-])cc1 (stereo not drawn)	1	-7	31*	.	1	0
COc1ccc(C(CC(=O)O)NC(=O)c2cccs2)cc1 (stereo not drawn)	1	-10	.	-1	2	0
Cc1ccccc1C(=O)c1cccn1CC(=O)NCCC1=CCCCC1	.	.	56*	-3	1	0
COc1ccccc1NC(=O)N[C@@H]1CC[C@H](CC(=O)N[C@H](C)c2ccccc2)O[C@@H]1CO	-1	-4	.	4	.	.
Cc1cc(NC(=O)CSc2nnc(-c3ccc(O)cc3)o2)no1	-4	-8	0	47*	-3	-3
O=C(CSc1nnc(-c2ccc(O)cc2)o1)Nc1ccccc1	0	-9	62*	.	16	-2
Cc1ccc(-n2c(SCC(=O)Nc3cc(C)on3)nc3ccccc3c2=O)cc1	-6	-13	2	-7	12	.
Cc1cc(C)cc(-c2nnc(SCC(=O)Nc3cc(C)on3)o2)c1	-6	-23	-4	39	1	-2
CCC(c1nnc(SCC(=O)Nc2cc(C)on2)o1)N(C)C (stereo not drawn)	3	-25	.	76*	-4	-1
Cc1cc(NC(=O)CSc2nc3ccccc3c(=O)n2-c2ccccc2)no1	-3	-14	-2	.	55*	-2
C[C@@H]1CN([C@@H](C)CO)C(=O)Cc2cc(NC(=O)CCC(F)(F)F)ccc2O[C@H]1CN(C)C(=O)Nc1ccc2c(c1)OCO2	-1	-1	.	-4	.	.
CS(=O)(=O)N1[C@@H]2c3ccc(-c4ccccc4)c(=O)n3C[C@@H]2[C@@H](CO)[C@@H]1C(=O)NC1CCC1	1	.	.	-6	.	.
CCn1c(SCC(=O)Nc2cc(C)on2)nnc1-c1ccc(OC)cc1	.	.	-4	0	50*	-2
Cc1cc(NC(=O)CSc2nnc(C)c(=O)[nH]2)no1	2	-28	-4	-5	69*	0
Cc1cc(C)nc(SCC(=O)Nc2cc(C)on2)n1	-4	-14	1	-7	4	-1
Cc1cc(NC(=O)CSc2nnc(C)o2)no1	0	-18	-5	47*	-4	-1
Cc1cc(NC(=O)CSc2nc(C)c(C)c(=O)[nH]2)no1	12	-12	2	0	-3	-3
CCN=c1scc(-c2ccccc2)n1/N=C/c1ccccn1	.	.	-2	61*	1	0

Part of the list above, with values under each structure:
Below each SMILES: PglD inh	Yeast UUG start	CAL PDZ FP-1	ARNT-TACC3 inh	Vif imaging	CAL PDZ FP-2
Cc1cc(NC(=O)CSc2nc(C)c(C)c(=O)[nH]2)no1
 : 12	-12	2	0	-3	-3
Cc1ccccc1C(=O)c1cccn1CC(=O)NCCC1=CCCCC1
 : .	.	56*	-3	1	0
COc1ccc(CCNS(=O)(=O)c2ccc(-n3cnnn3)cc2)cc1OC
 : 4	-13	+	-3	5	-1
COc1ccc(C(=O)Nc2ccc3c(c2)C(=O)N(C)[C@H]2CC[C@H](CC(=O)NCC4CC4)O[C@H]2CO3)cc1
 : 6	.	.	-2	.	.
Cc1cc(NC(=O)CSc2nc3ccccc3c(=O)n2-c2ccccc2)no1
 : -3	-14	-2	.	55*	-2

The list goes on.
SMILES	PglD inh	Yeast UUG start	CAL PDZ FP-1	ARNT-TACC3 inh	Vif imaging	CAL PDZ FP-2
C=CCN=c1scc(-c2ccccc2)n1/N=C/c1ccccn1	2	-7	-2	47*	-5	0
CCN=c1scc(-c2ccc(F)cc2)n1/N=C/c1ccccn1	.	.	.	32	4	1
C[C@@H]1CN([C@H](C)CO)C(=O)c2cccc(NC(=O)c3ccc(-c4nccs4)cc3)c2O[C@H]1CN(C)C(=O)Nc1cccc2ccccc12	3	6	.	2	.	.
NS(=O)(=O)c1ccc2nc(NC(=O)c3ccc4ncsc4c3)sc2c1	3	-11	4	-4	-7	-2
NS(=O)(=O)c1ccc2nc(NC(=O)c3ccc4c(c3)OCCO4)sc2c1	5	-13	63*	-17	.	-1
C[C@H]1CN([C@@H](C)CO)S(=O)(=O)c2ccc(Br)cc2O[C@H]1CN(C)S(=O)(=O)c1ccc(F)cc1	0	2	.	-7	.	.
CC1CCN(CCCn2c(=S)[nH]c3c(sc4ccccc43)c2=O)CC1	-3	-16	50*	1	-5	12
Cc1noc(C)c1NC(=O)N(C)C[C@H]1Oc2ccc(NC(=O)c3ccncc3)cc2CC(=O)N([C@H](C)CO)C[C@@H]1C	-4	-4	.	-3	.	.
CN1CCC(=O)N(CCOc2ccccc2)CC1	-2	0	-2	60*	-7	0
C[C@H](CO)N1C[C@H](C)[C@H](CN(C)S(=O)(=O)c2ccc(F)cc2)Oc2ccc(NC(=O)Cc3ccccc3)cc2CC1=O	-1	1	.	6	.	.
O=C(Nc1ccccc1)c1ccc2snnc2c1	.	.	78*	-7	-1	0
Cc1ccc(NC(=O)c2ccc3snnc3c2)cc1	.	.	-6	0	-3	-2
Cc1cc(SCc2cccc(Cl)c2)nc(=O)[nH]1	2	-20	55*	2	-2	-2
Cc1cc(SCc2ccc(Cl)cc2)nc(=O)[nH]1	-4	-12	-4	-1	2	-1
C[C@@H]1CN([C@H](C)CO)C(=O)c2ccccc2-c2ccccc2CO[C@@H]1CN(C)S(=O)(=O)c1ccc(C#N)cc1	-1	1	.	3	.	.
Cn1cccc1-c1cc(C(=O)N/N=C/c2ccc(F)cc2)[nH]n1	0	-23	0	15	-20	-2
Cn1cccc1-c1cc(C(=O)O)[nH]n1	-1	-16	41*	-2	1	0
Cn1cccc1-c1cc(C(=O)N/N=C/c2ccc([N+](=O)[O-])cc2)[nH]n1	5	-20	-5	-6	70*	-3
C[C@@H]1CN([C@@H](C)CO)C(=O)c2cccc(NS(=O)(=O)c3ccc(F)cc3)c2O[C@H]1CN(C)C(=O)Nc1ccc2c(c1)OCO2	2	9	.	19	.	.
COc1ccc(C(=O)NCCC(C)C)cc1S(=O)(=O)N1CCOCC1	2	-3	2	-11	?	-1
COc1ccc(CC(=O)NCCC(C)C)cc1S(=O)(=O)N1CCOCC1	-4	7	42*	-2	-1	-2
COc1ccc(C=NNC(=S)Nc2ccc(F)cc2)cc1OC	-2	-11	-4	4	2	0
Fc1ccc(NC(=S)N/N=C/c2ccc(F)c(F)c2)c(F)c1	-2	-24	-3	-4	110*	-1
CO[C@H](CN(C)S(=O)(=O)c1ccc(F)cc1)[C@@H](C)CN([C@H](C)CO)S(=O)(=O)c1cccc(Cl)c1	2	.	.	13	.	.
